Measurements from WO2019234021A1.

Molecular target: Fcgamma Receptor IIIa (FcyRIIIa, CD16a) on NK cells or PBMCs (UniProt P08637)
Assay: cell-based or functional assay

## sialylated adalimumab (A-S) (antibody)
  fold increased potency over the H-M reference (EC50 ratio), ADCC in the presence of NK cells: 13 fold

## Man3-adalimumab (A-M) (antibody)
  fold increased potency over the H-M reference (EC50 ratio), ADCC in the presence of NK cells: 9 fold
